The data set in a line: in vitro. As to conditions: human, liver microsomes.

The structures appear in SMILES notation.

As for `C[C@]12CC[C@H]3[C@@H](CCC4=CC(=O)CC[C@@]43C)[C@@H]1CC[C@@H]2O` [TESTOSTERONE], the CLint scaled was found to be 69.8 mL/min/kg.

The record behind these values is ChEMBL document CHEMBL4390673, “Identification of Novel Coumestan Derivatives as Polyketide Synthase 13 Inhibitors against Mycobacterium tuberculosis. Part II” (J Med Chem, 2019).
